Data as given in patent US10568926B2, “Use of des-aspartate-angiotensin I to treat patients exhibiting malignant growth, invasive growth, tumor, tumor metastasis or cancer” (dated 2020).
Values joined by “and” are separate entries in the source; they are usually repeats but may differ in a detail not shown here. Equal values may be shown once. Read-outs that look alike come from different tables or passages of the source.

Legend:
T1-α protein in BALF = conditions: 75 nmole/kg/day oral
[1] = tested on: superoxide production in lungs; conditions: 75 nmole/kg/day; day 4 to day 14
ICAM-1 protein in lungs = conditions: 75 nmole/kg/day; day 4 to day 14
pulmonary MPO activity = conditions: 75 nmole/kg/day
[2] = tested on: gp91-phox protein in lungs; conditions: 75 nmole/kg/day
[3] = tested on: PGE2 and PGI2 in lung supernatant; conditions: 75 nmole/kg/day
L6 skeletal muscle cells [4] = tested on: L6 skeletal muscle cells
A549 cells [5] = tested on: A549 cells
B16-F10 melanoma cells = conditions: 24 hours
C57BL/6J mice = conditions: Sim et al., 2008; cited from earlier work
[6] = tested on: C57/BL/6J mice exposed to 42° C.; test: Survival of mice subjected to heat stroke; conditions: 7.5 nmole/kg oral 2 h before 42° C. for 45 min; first 24 hours survival
HUVEC = test: TNF-α-induced production of ICAM-1 in HUVEC; conditions: 4 ng/ml TNF-α
A549 cells [7] = test: LPS-induced superoxide production in A549 cells
[8] = tested on: human umbilical vein endothelial cells; test: Production of prostaglandins and thromboxane in HUVEC
[9] = tested on: pancreatic beta-TC-6 cells; test: Glucose-induced pancreatic beta-TC-6 cell death (MTT); conditions: 4 days
[10] = tested on: Hsp90 in B16-F10 melanoma cells; test: Hsp90 content in B16-F10 melanoma cells (Western blot); conditions: 24 hours
[11] = tested on: SH-SY5Y neuroblastoma cells; test: Dopamine-induced neuroblastoma SH-SY5Y cell death (MTT)
[12] = tested on: hepatic heat shock proteins 27 and 70; test: Hepatic heat shock proteins 27 and 70 in mice exposed to heat shock; conditions: pretreatment with 7.5 nmole/kg DAA-I; heat stroke
[13] = tested on: B16-F10 melanoma cells in C57BL/6J mice; test: Growth of intra-hepatic administered B16-F10 melanoma cells in mice; conditions: 150 nmole/kg/day oral for 19 days; n 10
L6 skeletal muscle cells [14] = test: H2O2-induced activation and translocation of NFκB to the nucleus in L6 skeletal muscle cells; conditions: 200 μM H2O2
[15] = tested on: human umbilical vein endothelial cells; conditions: 10^−10 M DAA-I 15 min
[16] = 10 μM cyclooxygenase inhibitor pre-incubated 1 h
[17] = 1 μM antagonist pre-incubated 1 h

des-aspartate-angiotensin I
release of T1α protein (T1-α protein in BALF; Day 1, 7, 14 post-HSM): significantly attenuated
attenuation of T1α protein release at 14 day of treatment (T1-α protein in BALF; day 14): complete attenuation
production of superoxide in lung [1]: significantly attenuated
production of ICAM-1 in lung (ICAM-1 protein in lungs): significantly attenuated
level of lung MPO (pulmonary MPO activity): significantly attenuated
increase in lung gp91-phox protein [2]: significantly attenuated
HSM-induced decrease in lung PGI2 (6-keto PGF1α) [3]: attenuated the decrease
HSM-induced increase in lung PGE2 [3]: significantly enhanced the increase
maximum effective dose for attenuation of ICAM-1 overexpression (L6 skeletal muscle cells [4]; 200 μM H2O2): 10^−10 M
attenuation of H2O2-induced overexpression of ICAM-1 (L6 skeletal muscle cells [4]; 10^−10 M DAA-I, 200 μM H2O2): 100%
inhibition of LPS-induced E-selectin production (A549 cells [5]; 10^−12 M DAA-I, 10 μg/ml LPS, 24 hours): complete
effect on basal level of superoxide (legend of E-selectin figure) (A549 cells [5]; 10^−14M DAA-I by itself): had no effect
viability of cultured B16-F10 melanoma cells (B16-F10 melanoma cells; 10^−6 M to 10^−20 M): concentration-dependently inhibited
concentration of maximum effect on viability (B16-F10 melanoma cells): 10^−10 M
concentrations attenuating growth of melanoma cells (B16-F10 melanoma cells): 10^−10 to 10^−14 M
hypoglycemic action in euglycemic C57BL/6J mice (C57BL/6J mice): exert hypoglycemic action
Survival (Number out of 5 animals) Female Mice [6]: 5 out of 5 animals and 4 out of 5 animals
Survival (Number out of 5 animals) Male Mice [6]: 4 out of 5 animals
concentration of maximum attenuation of TNF-α-induced ICAM-1 (HUVEC): 10^−10 M
inhibition of LPS-induced superoxide production (A549 cells [7]; 10^−12 M DAA-I, 10 μg/ml LPS, 6 hours): complete
effect on basal level of superoxide (A549 cells [7]; 10^−14M DAA-I by itself): had no effect
production of PGE2 ([8]; 10^−5 M DAA-I): less effective
production of PGF2α ([8]; 10^−5 M DAA-I): mimicked angiotensin II in inducing the production
production of PGI2 (6-keto PGF1α) ([8]; 10^−5 M DAA-I): less effective
production of TXA2 (TXB2) ([8]; 10^−5 M DAA-I): mimicked angiotensin II in inducing the production
basal production of PGF2α ([8]; 10^−10 M DAA-I): had no effect
basal production of thromboxane A2 (TXB2) ([8]; 10^−10 M DAA-I): had no effect
production of PGE2 ([8]; 10^−10 M DAA-I): specifically induced the production
production of PGI2 (6-keto PGF1α) ([8]; 10^−10 M DAA-I): specifically induced the production
concentration at which non specific action is exerted ([8]; concentration range of 10^−12 to 10^−5 M): 10^−6 M
maximum protection from glucose-induced cell death ([9]; 10^−12 M DAA-I, additional 33.3 mM glucose): over 90%
concentration of maximum attenuation of cell death ([9]; additional 33.3 mM glucose): 10^−12 M
production of heat shock protein 90 ([10]; 10^−6 M to 10^−20 M): concentration-dependently inhibited
cellular content of Hsp90 ([10]; 10^−10 to 10^−14 M): similarly attenuated
concentration of maximum effect on Hsp90 [10]: 10^−10 M
concentrations of maximum attenuation of cell death ([11]; 400 μM dopamine, 24 h): 10^−10 to 10^−12 M
maximum protection from dopamine-induced cell death ([11]; 10^−12 M DAA-I, 400 μM dopamine): over 90%
production of hepatic heat shock protein 27 [12]: significantly enhanced the production
production of hepatic heat shock protein 70 [12]: significantly enhanced the production
No. of mice with tumor growth in liver [13]: 4
No. of mice with tumor growth in liver and abdominal lymphatics [13]: 2
maximum effective dose for attenuation of NF-κB translocation (L6 skeletal muscle cells [14]): 10^−10 M
attenuation of H2O2-induced translocation of NF-κB into the nucleus (L6 skeletal muscle cells [14]; 10^−10 M DAA-I): > 90%

angiotensin II
production of PGF2α ([8]; 10^−7 M angiotensin II): inducing the production
production of TXA2 (TXB2) ([8]; 10^−7 M angiotensin II): inducing the production

NCCc1ccc(O)c(O)c1
LD50 (death of SH-SY5Y) ([11]; dopamine 24 h, MTT): 400 µM

CS(=O)(=O)Nc1ccc([N+](=O)[O-])cc1OC1CCCCC1
effect on DAA-I-induced production of PGE2 and PGI2 [15, 16]: not

O=C[C@H](O)[C@@H](O)[C@H](O)[C@H](O)CO
LD50 (death of beta-TC-6 cells) ([9]; glucose added to DMEM (basal 25 mM), MTT): 33.3 mM

CCCCc1nc(Cl)c(CO)n1Cc1ccc(-c2ccccc2-c2nn[nH]n2)cc1
effect on DAA-I-induced production of PGE2 and PGI2 [15, 17]: blocked

COc1ccc2c(c1)c(CC(=O)O)c(C)n2C(=O)c1ccc(Cl)cc1
effect on DAA-I-induced production of PGE2 and PGI2 [15, 16]: blocked

H2O2
ICAM-1 overexpression (L6 skeletal muscle cells [4]; 200 μM H2O2, 4 h): 8 times the basal level
maximum effective dose for ICAM-1 overexpression (L6 skeletal muscle cells [4]; H2O2 50-1600 μM, 4 h): 200 µM

PD123319
effect on DAA-I-induced production of PGE2 and PGI2 [15, 17]: not
